What was measured:
[1] = target: IL-23 stimulated phosphorylated STAT3 in PBMCs (Homo sapiens, UniProt Q5VWK5); assay: PBMC pSTAT3 assay; format: cell-based; conditions: PBMCs from healthy donors, IL-23 5 ng/mL, 30 minutes
Stability in rat plasma = format: in vitro ADME; conditions: SD rat plasma, 37° C., 20 μM
Procedure: Example 6: Stability of Peptide Inhibitors in Rat Plasma
Peptides of interest (20 μM) were incubated with pre-warmed rat plasma (SD rat, mixed gender pooled, EDTA, filtered through 0.22 μm, BioreclamationIVT) at 37° C. Aliquots were taken at various time points up to 24 hours (e.g. 0, 0.25, 1, 3, 6 and 24 hr), and immediately quenched with 4 volumes of organic solvent (acetonitrile/methanol (1:1) and 0.1% formic acid, containing 1 μM internal standard). Quenched samples were stored at 4° C. until the end of the experiment and centrifuged at 4,000 rpm for 10 minutes. The supernatant were diluted 1:1 with deionized water and analyzed using LC-MS. Percentage remaining at each time point was calculated based on the peak area ratio (analyte over internal standard) relative to the initial level at time zero. Half-lives were calculated by fitting to a first-order exponential decay equation using GraphPad.

Sequences of proteins named here, by UniProt entry; tags and fusion partners are left off. Residues count along the entry.
UniProt Q5VWK5, 24-629 limits assumed: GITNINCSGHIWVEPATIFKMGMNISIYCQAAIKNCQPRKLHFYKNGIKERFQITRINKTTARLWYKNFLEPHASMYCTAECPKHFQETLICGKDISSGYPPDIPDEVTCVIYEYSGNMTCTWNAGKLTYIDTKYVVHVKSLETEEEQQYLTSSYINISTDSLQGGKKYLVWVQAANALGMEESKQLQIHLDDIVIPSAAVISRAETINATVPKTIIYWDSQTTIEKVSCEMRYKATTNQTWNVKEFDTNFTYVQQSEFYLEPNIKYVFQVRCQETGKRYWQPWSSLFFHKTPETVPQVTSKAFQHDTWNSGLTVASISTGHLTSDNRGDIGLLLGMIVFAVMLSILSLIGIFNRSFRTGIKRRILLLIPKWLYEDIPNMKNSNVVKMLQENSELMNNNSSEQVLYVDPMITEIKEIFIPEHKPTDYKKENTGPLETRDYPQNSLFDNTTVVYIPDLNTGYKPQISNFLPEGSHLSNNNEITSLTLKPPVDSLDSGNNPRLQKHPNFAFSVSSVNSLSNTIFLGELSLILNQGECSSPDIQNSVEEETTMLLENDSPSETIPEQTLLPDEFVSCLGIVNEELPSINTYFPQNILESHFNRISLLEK

[2] = Stability in human fecal homogenate; format: in vitro ADME; conditions: 20% human fecal homogenate, 37° C., 20 μM
[3] = Stability in cynomolgus monkey fecal homogenate; format: in vitro ADME; conditions: 20% cynomolgus monkey fecal homogenate, 37° C., 20 μM
[4] = target: IL-23 induced IFNγ in natural killer (NK) cells (Homo sapiens, UniProt Q5VWK5); assay: NK cell based assay (IL-23/IL-18 induced IFNγ); conditions: IL-23 at EC50 to EC75 and IL-18 10 ng/mL, IFNγ in supernatant after 20 to 24 hours
From the text: Example 3: NK Cell Based Assay

[5] = Stability in simulated intestinal fluid (SIF); format: in vitro ADME; conditions: 100 fold dilution of standard SIF concentration, 37° C., 20 μM
Outline: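 Peptides at 20 μM final were incubated at 37 °C in SIF (potassium phosphate with pancreatin, pH 6.8), and reactions were quenched with acetonitrile/1% formic acid at time points from 0 min to 24 h. Percent remaining relative to time 0 was determined by LC-MS/MS against an internal standard, and half-life came from a first-order decay fit.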

With “Ac-[Pen]-N-T-[W(7-Me)]-[Lys(Ac)]-[Pen]-Phe[4-(2-aminoethoxy)]-[2-Nal]-[a-MeLys]-[Lys(Ac)]-N-[(D)Thr]-[(D)NMeTyr]-NH2 [Peptide 91]” the IC50 [1] was 14 nM.

Substance “Ac-[Pen]-N-T-[W(7-Me)]-[Lys(Ac)]-[Pen]-Phe[4-(2-aminoethoxy)]-[2-Nal]-[a-MeLys]-[Lys(Ac)]-N-[(D)Tyr]-[Sarc]-NH2 [Peptide 240]” has an IC50 [1] of 40 nM.

“Ac-[(D)Arg]-[Pen]-N-T-[W(7-Me)]-[Lys(Ac)]-[Pen]-Phe[4-(2-aminoethoxy)]-[2-Nal]-[a-MeLys]-E-N-H-[(D)NMeTyr]-NH2 [Peptide 83]” gave an IC50 [1] of 1.7 nM.

In the case of “Ac-[Pen]-N-T-[W(7-Me)]-[Lys(Ac)]-[Pen]-Phe[4-(2-aminoethoxy)]-[2-Nal]-[a-MeLys]-[Lys(Ac)]-N-[(D)Tyr]-[(D)NMeTyr]-NH2 [Peptide 215]”, the IC50 [1] is reported as 7.3 nM.

Substance “Ac-[(D)Arg]-[Pen]-N-T-[W(7-Me)]-[Lys(Ac)]-[Pen]-Phe[4-(2-aminoethoxy)]-[2-Nal]-[Acvc]-E-N-[3Pal]-[Sarc]-NH2 [Peptide 235]” has an IC50 [1] of 0.01 nM.

“Ac-[Pen]-N-T-[W(7-Me)]-[Lys(Ac)]-[Pen]-Phe[4-(2-aminoethoxy)]-[2-Nal]-[a-MeLys]-[Lys(Ac)]-N-[3Pal]-[(D)NMeTyr]-NH2 [Peptide 246]” gave an IC50 [1] of 0.33 nM.

In the case of “Ac-[(D)Arg]-[Pen]-N-T-[W(7-Me)]-[Lys(Ac)]-[Pen]-Phe[4-(2-aminoethoxy)]-[2-Nal]-[THP]-E-N-[(1-Me)His]-NH2 [Peptide 166]”, the IC50 [1] is reported as 8.9 nM.

In the case of “Ac-[Pen]-N-T-[W(7-(2-FPh)]- [Lys(Ac)]-[Pen]-Phe[4-(2-aminoethoxy)]-[2-Nal]-[a-MeLys]-[Lys(Ac)]-N-H-[Sarc]-NH2 [Peptide 46]”, the “t½: Rat Plasma EDTA” value (Stability in rat plasma) is reported as >24.0 h, the “t½: Human Feces anaerobic” value [2] is reported as >24.0 h and the “t½: Monkey Feces anaerobic” value [3] is reported as >24.0 h. For the same substance, the IC50 [4] was 1.39 nM and the “SIF t½” value [5] was >24.0 h.

“Ac-[Pen]-N-T-[W(7-Me)]-[Lys(Ac)]-[Pen]-Phe[4-(2-aminoethoxy)]-[2-Nal]-[a-MeLys]-[Lys(Ac)]-N-[(D)Ser]-[(D)NMeTyr]-NH2 [Peptide 204]” gave an IC50 [1] of 6.4 nM.

In the case of “Ac-[Pen]-N-T-[W(7-Me)]-[Lys(Ac)]-[Pen]-Phe[4-(2-aminoethoxy)]-[2-Nal]-[a-MeLys]-[Lys(Ac)]-N-[bAla]-[(D)NMeTyr]-NH2 [Peptide 218]”, the IC50 [1] is reported as 15 nM.

For “Ac-[Pen]-N-T-[W(7-Ph)]-[Lys(Ac)]-[Pen]-Phe[4-(2-aminoethoxy)]-[3Quin]-[a-MeLys]-[Lys(Ac)]-N-[(D)Leu]-[Sarc]-NH2 [Peptide 14]”, the “t½: Rat Plasma EDTA” value (Stability in rat plasma) was >24.0 h, the “t½: Human Feces anaerobic” value [2] was >24.0 h and the “t½: Monkey Feces anaerobic” value [3] was >24.0 h. The IC50 [4] was 2.8 nM and the “SIF t½” value [5] was >24.0 h.

For “Ac-[Pen]-N-T-[W(7-(Phenanthren-5-yl))]-[Lys(Ac)]-[Pen]-Phe[4-(2-aminoethoxy)]-[2-Nal]-[THP]-E-N-H-[Sarc]-NH2 [Peptide 69]”, the “t½: Rat Plasma EDTA” value (Stability in rat plasma) was >24.0 h, the “t½: Human Feces anaerobic” value [2] was >24.0 h and the “t½: Monkey Feces anaerobic” value [3] was >24.0 h. For the same substance, the IC50 [4] was 9.99 nM and the “SIF t½” value [5] was >24.0 h.

For “Ac-[Pen]-N-T-[W(7-(1-Nal))]-[Lys(Ac)]-[Pen]-Phe[4-(2-aminoethoxy)]-[2-Nal]-[THP]-E-N-H-[Sarc]-NH2 [Peptide 71]”, the “t½: Rat Plasma EDTA” value (Stability in rat plasma) was >24.0 h, the “t½: Human Feces anaerobic” value [2] was >24.0 h and the “t½: Monkey Feces anaerobic” value [3] was >24.0 h. For the same substance, the IC50 [4] was 2.88 nM and the “SIF t½” value [5] was >24.0 h.

In the case of “Ac-[Pen]-N-T-[W(7-3BiPh)]-[Lys(Ac)]-[Pen]-Phe[4-(2-aminoethoxy)]-[2-Nal]-[THP]-E-N-H-[Sarc]-NH2 [Peptide 68]”, the “t½: Rat Plasma EDTA” value (Stability in rat plasma) is reported as >24.0 h, the “t½: Human Feces anaerobic” value [2] is reported as >24.0 h and the “t½: Monkey Feces anaerobic” value [3] is reported as >24.0 h. The IC50 [4] was 1.07 nM and the “SIF t½” value [5] was >24.0 h.

For “Ac-[Pen]-N-T-[W(7-Me)]-[Lys(Ac)]-[Pen]-Phe[4-(2-aminoethoxy)]-[W(7-nPr)]-[a-MeLys]-[Lys(Ac)]-N-H-[Sarc]-NH2 [Peptide 39]”, the “t½: Rat Plasma EDTA” value (Stability in rat plasma) was >24.0 h, the “t½: Human Feces anaerobic” value [2] was 23.4 h and the “t½: Monkey Feces anaerobic” value [3] was 24 h. For the same substance, the IC50 [4] was 34.1 nM and the “SIF t½” value [5] was >24.0 h.

With “Ac-[Pen]-N-T-[W(7-Me)]-[Lys(Ac)]-[Pen]-Phe[4-(2-aminoethoxy)]-[W(6-C1)]-[a-MeLys]-[Lys(Ac)]-N-H-[Sarc]-NH2 [Peptide 41]” the “t½: Rat Plasma EDTA” value (Stability in rat plasma) was >24.0 h, the “t½: Human Feces anaerobic” value [2] was 21.5 h and the “t½: Monkey Feces anaerobic” value [3] was 15.4 h. The IC50 [4] was 1.51 nM and the “SIF t½” value [5] was >24.0 h.

With “Ac-[Pen]-N-T-[W(7-Ph)]-[Lys(Ac)]-[Pen]-Phe[4-(2-aminoethoxy)]-[3Quin]-[THP]-E-N-[(D)Leu]-[Sarc]-NH2 [Peptide 13]” the “t½: Rat Plasma EDTA” value (Stability in rat plasma) was 7.6 h, the “t½: Human Feces anaerobic” value [2] was >24.0 h and the “t½: Monkey Feces anaerobic” value [3] was >24.0 h. The IC50 [4] was 2.37 nM and the “SIF t½” value [5] was >24.0 h.

With “Ac-[Pen]-N-T-[W(7-Me)]-[Lys(Ac)]-[Pen]-Phe[4-(2-aminoethoxy)]-[3-Quin]-[THP]-E-N-[(D)Lys]-[Sarc]-NH2 [Peptide 3]” the “t½: Rat Plasma EDTA” value (Stability in rat plasma) was 10.9 h, the “t½: Human Feces anaerobic” value [2] was >24.0 h and the “t½: Monkey Feces anaerobic” value [3] was >24.0 h. The IC50 [4] was 2.05 nM and the “SIF t½” value [5] was >24.0 h.

With “Ac-[Pen]-N-T-[W(7-Me)]-[Lys(Ac)]-[Pen]-Phe[4-(2-aminoethoxy)]-[2-Nal]-[THP]-E-[(D)Asn]-H-[Sarc]-NH2 [Peptide 63]” the “t½: Rat Plasma EDTA” value (Stability in rat plasma) was >24.0 h, the “t½: Human Feces anaerobic” value [2] was >24.0 h and the “t½: Monkey Feces anaerobic” value [3] was >24.0 h. For the same substance, the IC50 [4] was 28.1 nM and the “SIF t½” value [5] was >24.0 h.

In the case of “Ac-[Pen]-N-T-[W(7-Me)]-[Lys(Ac)]-[Pen]-Phe[4-(2-aminoethoxy)]-[3-Quin]-[a-MeLys]-[Lys(Ac)]-N-[(D)Leu)]-[Sarc]-NH2 [Peptide 2]”, the “t½: Rat Plasma EDTA” value (Stability in rat plasma) is reported as >24.0 h, the “t½: Human Feces anaerobic” value [2] is reported as >24.0 h and the “t½: Monkey Feces anaerobic” value [3] is reported as >24.0 h. For the same substance, the IC50 [4] was 2.11 nM and the “SIF t½” value [5] was >24.0 h.

With “Ac-[Pen]-S-T-[W(7-Ph)]-[Lys(Ac)]-[Pen]-Phe[4-(2-aminoethoxy)]-[2-Nal]-[THP]-E-S-H-[Sarc]-NH2 [Peptide 61]” the “t½: Rat Plasma EDTA” value (Stability in rat plasma) was >24.0 h, the “t½: Human Feces anaerobic” value [2] was 19.5 h and the “t½: Monkey Feces anaerobic” value [3] was 15.7 h. For the same substance, the IC50 [4] was 2.23 nM and the “SIF t½” value [5] was >24.0 h.

With “Ac-[Pen]-N-T-[W(7-(4BiPh))]-[Lys(Ac)]-[Pen]-Phe[4-(2-aminoethoxy)]-[2-Nal]-[THP]-E-N-H-[Sarc]-NH2 [Peptide 72]” the “t½: Rat Plasma EDTA” value (Stability in rat plasma) was >24.0 h, the “t½: Human Feces anaerobic” value [2] was >24.0 h and the “t½: Monkey Feces anaerobic” value [3] was >24.0 h. For the same substance, the IC50 [4] was 1.81 nM and the “SIF t½” value [5] was >24.0 h.

With “Ac-[Pen]-N-T-[W(7-(3,5-t-Bu-Ph))]-[Lys(Ac)]-[Pen]-Phe[4-(2-aminoethoxy)]-[2-Nal]-[THP]-E-N-H-[Sarc]-NH2 [Peptide 73]” the “t½: Rat Plasma EDTA” value (Stability in rat plasma) was >24.0 h, the “t½: Human Feces anaerobic” value [2] was >24.0 h and the “t½: Monkey Feces anaerobic” value [3] was 23.2 h. For the same substance, the IC50 [4] was 8.1 nM and the “SIF t½” value [5] was >24.0 h.

With “Ac-[Pen]-N-T-[W(7-Me)]-[Lys(Ac)]-[Pen]-Phe[4-(2-aminoethoxy)]-[2-Nal]-[a-MeLys]-[Lys(Ac)]-N-[(D)Lys]-[Sarc]-NH2 [Peptide 21]” the “t½: Rat Plasma EDTA” value (Stability in rat plasma) was >24.0 h, the “t½: Human Feces anaerobic” value [2] was >24.0 h and the “t½: Monkey Feces anaerobic” value [3] was 22.7 h. The IC50 [4] was 2.04 nM and the “SIF t½” value [5] was >24.0 h.

In the case of “Ac-[Pen]-N-T-[W(7-Me)]-[Lys(Ac)]-[Pen]-[Phe(4-OMe)]-[2-Nal]-[THP]-E-N-H-[Sarc]-NH2 [Peptide 75]”, the “t½: Rat Plasma EDTA” value (Stability in rat plasma) is reported as 16.1 h, the “t½: Human Feces anaerobic” value [2] is reported as 7.2 h and the “t½: Monkey Feces anaerobic” value [3] is reported as 17 h. The IC50 [4] was 1.84 nM and the “SIF t½” value [5] was 15.4 h.
